We go through two molecules from patent US20090182033A1, “Cyclic Amine Derivatives and Their Uses” (ARGENTA DISCOVERY LTD., priority 2005, published 2009).

Protein sequences, listed by entry. Tags and fused reporters are not part of them.
UniProt P20309, whole entry, looked up: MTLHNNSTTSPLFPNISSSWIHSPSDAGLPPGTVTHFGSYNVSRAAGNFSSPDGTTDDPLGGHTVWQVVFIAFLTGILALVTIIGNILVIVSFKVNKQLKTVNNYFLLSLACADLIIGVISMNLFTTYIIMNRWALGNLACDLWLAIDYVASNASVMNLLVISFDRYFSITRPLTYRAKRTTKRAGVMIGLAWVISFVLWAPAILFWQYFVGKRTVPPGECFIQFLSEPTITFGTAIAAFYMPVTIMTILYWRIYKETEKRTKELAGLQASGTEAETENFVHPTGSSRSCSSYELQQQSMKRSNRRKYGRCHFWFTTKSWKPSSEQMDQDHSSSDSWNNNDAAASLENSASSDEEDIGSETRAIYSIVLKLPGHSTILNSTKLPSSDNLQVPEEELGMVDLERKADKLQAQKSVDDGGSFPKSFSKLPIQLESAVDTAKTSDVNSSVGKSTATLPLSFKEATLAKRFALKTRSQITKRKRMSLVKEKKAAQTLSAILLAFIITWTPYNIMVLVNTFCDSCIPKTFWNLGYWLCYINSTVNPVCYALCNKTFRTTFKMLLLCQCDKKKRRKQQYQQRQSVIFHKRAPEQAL

The target of one assay is human M3 receptor (Homo sapiens, UniProt P20309). Briefly: Inhibition of M3 receptor activation via calcium mobilization. The conditions noted are these: CHO cells expressing the human M3 receptor, Carbachol at EC80, calcium-sensitive dye. (In general: Calcium assays in cells follow changes in intracellular calcium, usually with a dye or a luminescent sensor.)
In assay [1] the test system is methacholine-induced bronchoconstriction in the Guinea pig. Briefly: Methacholine induced bronchoconstriction in vivo. The conditions noted are these: 3 μg/kg i.n., 1 hr after dosing, i.v. methacholine.

Consider `C[N+](C)(CCCc1ccccc1)C1CC2CCC1C2OC(=O)C(O)(c1cccs1)c1cccs1` (centres unmarked), for which the IC50 – broadly, the concentration needed to halve the response being measured – at human M3 receptor was under 10 nM.
Regarding `C[N+](C)(CCCc1ccccc1)C1CC2CCC1C2OC(=O)C(O)(c1cccs1)c1cccs1.[Br-]` (centres unmarked), in assay [1], the bronchoprotective effect result is on record as “bronchoprotective”.
